What was measured:
Test in all cases: PubChem AID 652078
Conditions in all cases: equilibrium dialysis LC-MS/MS, 8 h, at 1 µM, hits give high values
human = test system: human
mouse = test system: mouse
rat = test system: rat

Measured: plasma protein binding

COC(=O)c1cc(Br)cnc1N1CCC(NC2CCCCC2)C(O)C1 (stereo not drawn)
active: human 73% | mouse 96% | rat 99%

Source: PubChem BioAssay AID652078 (The Scripps Research Institute Molecular Screening Center, 2013)
